The chains behind the UniProt entries cited, without tags or fusion partners. Where a name states a change or a piece, a line headed by the entry shows the natural chain unless it says otherwise.
UniProt P11229: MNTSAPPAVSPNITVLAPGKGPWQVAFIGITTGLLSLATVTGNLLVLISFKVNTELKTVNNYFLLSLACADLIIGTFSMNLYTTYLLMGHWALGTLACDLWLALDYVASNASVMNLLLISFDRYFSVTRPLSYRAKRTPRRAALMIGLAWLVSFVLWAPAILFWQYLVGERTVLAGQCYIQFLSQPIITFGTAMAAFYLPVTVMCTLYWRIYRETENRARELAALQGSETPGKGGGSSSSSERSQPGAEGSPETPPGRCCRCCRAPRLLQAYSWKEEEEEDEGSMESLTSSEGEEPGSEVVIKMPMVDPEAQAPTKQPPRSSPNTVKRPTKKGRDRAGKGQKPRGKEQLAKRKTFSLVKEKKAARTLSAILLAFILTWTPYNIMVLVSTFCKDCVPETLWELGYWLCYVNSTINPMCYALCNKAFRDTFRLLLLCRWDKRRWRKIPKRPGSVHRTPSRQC

For this assay, the target named is Muscarinic acetylcholine receptor M1 (Homo sapiens, UniProt P11229). The assay can be described thus: Antagonist activity at human muscarinic M1 receptor expressed in CHO cells assessed as inhibition of acetylcholine-induced calcium mobilization by fluorescence analysis. Type of assay: functional, cell-based. In general terms: Calcium flux is commonly read through the fluorescence of an indicator in the cells.
`O=C(C1CN(S(=O)(=O)c2cccc(Cl)c2F)C1)N1CCN(c2ccncc2)CC1`: the IC50 came to 2800 nM.

Turning to `O=C(C1CN(S(=O)(=O)c2cccc(Cl)c2)C1)N1CCN(c2ccncc2)CC1`, the IC50 was found to be 4100 nM.

Regarding `O=C(C1CN(S(=O)(=O)c2cccc3ncccc23)C1)N1CCN(c2ccncc2)CC1`, the IC50 came out at 1800 nM.

Regarding `O=C(C1CN(S(=O)(=O)c2ccc3ncccc3c2)C1)N1CCN(c2ccncc2)CC1`, the IC50 was found to be 1700 nM.

With `O=C(C1CN(S(=O)(=O)c2ccc3c(c2)OCO3)C1)N1CCN(c2ccncc2)CC1`, the IC50 was 830 nM.

Consider `Cc1cc(S(=O)(=O)N2CC(C(=O)N3CCN(c4ccncc4)CC3)C2)cnc1Cl`, for which the half-inhibitory concentration (IC50) was 310 nM.

In the case of `O=C(C1CN(S(=O)(=O)c2cccc3cnccc23)C1)N1CCN(c2ccncc2)CC1`, the IC50 was determined as 110 nM.

Turning to `Cc1cc2c(S(=O)(=O)N3CC(C(=O)N4CCN(c5ccncc5)CC4)C3)cccc2cn1`, the IC50 is 2200 nM.

`O=C(C1CN(S(=O)(=O)c2cccc3c(Cl)nc(Cl)cc23)C1)N1CCN(c2ccncc2)CC1`: the IC50 was found to be 5500 nM.

Take `O=C(C1CN(S(=O)(=O)c2cccc3cnccc23)C1)N1CCN(c2ccncn2)CC1`: the concentration for half-maximal inhibition (IC50) was determined as 1500 nM.

For `Cc1cc2c(S(=O)(=O)N3CC(C(=O)N4CC5CN(c6ccncc6)CC5C4)C3)cccc2cn1` (stereo not drawn), the IC50 was 2700 nM.

Turning to `O=C(C1CN(S(=O)(=O)c2cccc3nsnc23)C1)N1CC2CN(c3ccncc3)CC2C1` (stereo not drawn), the IC50 turned out to be 2800 nM.

Consider `O=C(C1CN(S(=O)(=O)c2cccc(Cl)c2Cl)C1)N1CC2CN(c3ccncc3)CC2C1` (stereo not drawn), for which the IC50 came out at 1500 nM.

What is called IC50 is the concentration that gives 50% inhibition.

These data come from ChEMBL document CHEMBL2057199, “Development of novel M1 antagonist scaffolds through the continued optimization of the MLPCN probe ML012” (Bioorg Med Chem Lett, 2012).
